Measured values from PubChem BioAssay AID602162 (NMMLSC, 2011).
Only a part is listed here, and it is no random draw. Some structures show a salt or complex split into parts, the way the source records it. The source made the active and inactive calls.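 The calls were made as follows: active = fluorescence ratio to DMSO below 75%, the collection mean minus 3 SD; inconclusive = too few cells collected in the well; inactive = the rest.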

Sequences of proteins named here, by UniProt entry; tags and fusion partners are left off.
UniProt Q9NP58, whole entry: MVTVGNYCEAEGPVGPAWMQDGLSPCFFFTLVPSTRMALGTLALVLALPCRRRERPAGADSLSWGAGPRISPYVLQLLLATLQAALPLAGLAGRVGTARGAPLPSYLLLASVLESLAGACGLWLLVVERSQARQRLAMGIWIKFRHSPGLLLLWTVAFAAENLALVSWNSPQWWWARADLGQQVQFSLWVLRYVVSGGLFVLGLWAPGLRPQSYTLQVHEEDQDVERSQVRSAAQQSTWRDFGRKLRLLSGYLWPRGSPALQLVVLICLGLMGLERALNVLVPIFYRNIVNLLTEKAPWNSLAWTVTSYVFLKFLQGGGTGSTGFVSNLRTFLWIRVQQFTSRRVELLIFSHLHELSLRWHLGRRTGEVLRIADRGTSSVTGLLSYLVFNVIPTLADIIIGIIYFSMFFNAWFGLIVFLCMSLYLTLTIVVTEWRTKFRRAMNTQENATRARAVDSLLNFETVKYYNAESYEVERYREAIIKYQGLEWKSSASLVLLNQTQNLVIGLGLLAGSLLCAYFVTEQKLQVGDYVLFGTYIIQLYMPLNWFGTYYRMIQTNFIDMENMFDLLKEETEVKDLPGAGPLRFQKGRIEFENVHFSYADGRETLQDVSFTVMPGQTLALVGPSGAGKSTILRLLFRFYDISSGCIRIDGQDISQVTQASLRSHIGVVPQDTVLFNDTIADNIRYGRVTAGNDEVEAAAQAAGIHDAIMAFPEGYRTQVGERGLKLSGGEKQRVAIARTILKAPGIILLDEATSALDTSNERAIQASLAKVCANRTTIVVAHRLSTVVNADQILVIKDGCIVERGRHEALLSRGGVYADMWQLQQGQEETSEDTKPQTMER

Biological target: ATP-binding cassette sub-family B member 6 (Homo sapiens) (UniProt Q9NP58)
Assay: blockers of ABCB6-driven porphyrin uptake – K562-ABCB6 cells, flow cytometry, MLPCN library, primary screen (AID 602162);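 also: signal is porphyrin accumulated inside mitochondria; 100% equals median channel fluorescence of DMSO control wells; lower ratio means ABCB6 inhibition with less porphyrin fluorescence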
Details: K562-ABCB6 porphyrin accumulation, 1 h, at 10 µM, hits give low values

SMILES | fluorescence ratio to DMSO
CP(=S)(Nn1cnnc1)Oc1ccccc1 (stereo not drawn) | inactive: 99%
CP(=O)(Nc1ccccc1Br)Oc1ccccc1 (stereo not drawn) | inactive: 98%
COc1ccccc1OP(C)(=O)Nc1ccccc1 (stereo not drawn) | inactive: 100%
O=[N+]([O-])c1cc([N+](=O)[O-])c(O)c([N+](=O)[O-])c1.c1ccc(Oc2ccncc2)cc1 | inactive: 99%
CCOC(=O)c1ccc(NP(C)(=O)Oc2ccc(OC)cc2)cc1 (stereo not drawn) | inactive: 95%
CCOP(C)(=S)SCC(=O)NC(C)C(=O)O (stereo not drawn) | inactive: 103%
CP(=O)(Nc1ccccn1)Oc1ccc(Cl)cc1 (stereo not drawn) | inactive: 97%
CP(=O)(Nc1ccc(SC(F)(F)F)cc1)Oc1ccc(Cl)cc1 (stereo not drawn) | inactive: 97%
Cc1ccc(Nc2c([N+](=O)[O-])cc([N+](=O)[O-])cc2[N+](=O)[O-])cc1 | inactive: 93%
Cc1cccc(C)c1OP(C)(=O)Nc1ccc(SC(F)(F)F)cc1 (stereo not drawn) | inactive: 100%
CP(=O)(Oc1ccccc1)OC(c1ccccc1)C(F)(F)F (stereo not drawn) | inactive: 96%
CP(=O)(NC(=O)Nc1ccccc1)Oc1ccccc1 (stereo not drawn) | inactive: 98%
CCc1ccc(OP(C)(=O)N2CCN(c3ccc([N+](=O)[O-])cc3)CC2)cc1 (stereo not drawn) | inactive: 97%
Cc1cc(C)cc(OP(C)(=O)Nc2ccc(SC(F)(F)F)cc2)c1 (stereo not drawn) | inactive: 99%
COc1ccccc1-c1ccccn1.O=[N+]([O-])c1cc([N+](=O)[O-])c(O)c([N+](=O)[O-])c1 | inactive: 93%
CCN(CC)CCCOC(=O)C(O)(c1ccccc1)c1ccccc1 | inactive: 96%
COc1ccccc1OP(C)(=O)Nc1ccc(C)cc1 (stereo not drawn) | inactive: 93%
Cc1ccc(NP(C)(=O)Oc2ccccc2)c(C)c1 (stereo not drawn) | inactive: 95%
CCOC(=O)c1ccc(NP(C)(=O)Oc2ccccc2)cc1 (stereo not drawn) | inactive: 100%
Cc1cc(C)cc(OP(C)(N)=O)c1 (stereo not drawn) | inactive: 98%
COc1ccccc1OP(C)(=O)Nc1cc(Cl)ccc1C (stereo not drawn) | inactive: 102%
COc1ccc(OP(C)(=O)Nc2cccc(F)c2)cc1 (stereo not drawn) | inactive: 98%
O=[N+]([O-])c1cc([N+](=O)[O-])c(Nc2cccnc2)c([N+](=O)[O-])c1 | inactive: 96%
O=[N+]([O-])c1ccc2c(c1)C=Nc1ccccc1O2 | inactive: 99%
CC(C)(C)c1ccc(OP(C)(=O)Nc2ccc(SC(F)(F)F)cc2)cc1 (stereo not drawn) | inactive: 102%

SMILES | fluorescence ratio to DMSO
Cc1cccc(C)c1OP(C)(N)=O (stereo not drawn) | inactive: 104%
CC1=NCCc2c1[nH]c1ccccc21.O=[N+]([O-])c1cc([N+](=O)[O-])c(O)c([N+](=O)[O-])c1 | inactive: 102%
O=C(O)c1cccc(Nc2c([N+](=O)[O-])cc([N+](=O)[O-])cc2[N+](=O)[O-])c1 | inactive: 102%
Cc1ccc(C)c(NP(C)(=O)Oc2ccccc2)c1 (stereo not drawn) | inactive: 91%
Cc1cc(C)cc(OP(C)(=O)Nc2ccccn2)c1 (stereo not drawn) | inactive: 98%
CP(=O)(Nc1cccc(Br)c1)Oc1ccccc1 (stereo not drawn) | inactive: 98%
COc1ccccc1OP(C)(=O)Nc1cccc(Br)c1 (stereo not drawn) | inactive: 97%
CCOC(=O)c1ccc(NP(C)(=O)Oc2cc(C)cc(C)c2)cc1 (stereo not drawn) | inactive: 99%
Cc1cc(C)cc(OP(C)(=O)Nc2ccc(C)cc2C)c1 (stereo not drawn) | inactive: 97%
O=[N+]([O-])c1cc([N+](=O)[O-])c(-c2cnn(-c3ccccc3)c2)c([N+](=O)[O-])c1 | inactive: 96%
Cc1nc2ccc3ccccc3c2s1.O=[N+]([O-])c1cc([N+](=O)[O-])c(O)c([N+](=O)[O-])c1 | inactive: 151%
O=[N+]([O-])c1cc([N+](=O)[O-])c(-n2nnc3ccccc32)c([N+](=O)[O-])c1 | inactive: 95%
CN(Cc1cccnc1)C(=O)COc1ccc(Cl)c(Cl)c1.O=[N+]([O-])c1cc([N+](=O)[O-])c(O)c([N+](=O)[O-])c1 | inactive: 97%
CN1CCCCC1COC(=O)C1(O)c2ccccc2CCc2ccccc21 (stereo not drawn) | inactive: 95%
COc1ccccc1OP(C)(=O)Nc1c(C)cccc1C (stereo not drawn) | inactive: 90%
COc1ccc(-c2ccccn2)cc1.O=[N+]([O-])c1cc([N+](=O)[O-])c(O)c([N+](=O)[O-])c1 | inactive: 99%
CCCOc1ccc(NP(C)(=O)Oc2ccc(Cl)cc2)cc1 (stereo not drawn) | inactive: 98%
CP(=O)(Nc1ccc(SC(F)(F)F)cc1)Oc1ccccc1 (stereo not drawn) | inactive: 96%
CC1=C2N=C(C=C3N=C(C(C)=C4[N-][C@@](C)([C@@H]5N=C1[C@](C)(CCC(=O)NC[C@@H](C)OP(=O)([O-])O[C@H]1[C@@H](O)[C@@H](n6cnc7cc(C)c(C)cc76)O[C@@H]1CO)[C@H]5CC(N)=O)[C@@](C)(CC(N)=O)[C@@H]4CCC(N)=O)[C@@](C)(CC(N)=O)[C@@H]3CCC(N)=O)C(C)(C)[C@@H]2CCC(N)=O.[C-]#N.[Co+3] | inactive: 93%
O=[N+]([O-])c1cc([N+](=O)[O-])c(Nc2nnnn2CCO)c([N+](=O)[O-])c1 | inactive: 102%
CCOC(=O)C(CC)C1=NC(C)(C)Cc2ccccc21.O=[N+]([O-])c1cc([N+](=O)[O-])c(O)c([N+](=O)[O-])c1 (stereo not drawn) | inactive: 100%
O=[N+]([O-])c1ccc(OP2(=O)COCCO2)cc1 (stereo not drawn) | inactive: 98%
Cc1cc(-c2cccc3ccccc23)c(C)cn1.O=[N+]([O-])c1cc([N+](=O)[O-])c(O)c([N+](=O)[O-])c1 | inactive: 96%
O=[N+]([O-])c1cc([N+](=O)[O-])c(NCC2CCS(=O)(=O)C2)c([N+](=O)[O-])c1 (stereo not drawn) | inactive: 104%
Cc1c(C(c2ccc3c(c2)OCO3)c2c(C)n(C)n(-c3ccccc3)c2=O)c(=O)n(-c2ccccc2)n1C.O=[N+]([O-])c1cc([N+](=O)[O-])c(O)c([N+](=O)[O-])c1 | inactive: 100%

SMILES | fluorescence ratio to DMSO
COc1ccc(OP(C)(=O)Nc2cccc(Br)c2)cc1 (stereo not drawn) | inactive: 98%
CN(C)CCOC(=O)C(O)(c1ccccc1)C1CCCCC1 (stereo not drawn) | inactive: 101%
COc1ccc(NP(C)(=O)Oc2ccccc2OC)cc1 (stereo not drawn) | inactive: 168%
CP(=O)(Nc1ccc2c(c1)OCCO2)Oc1ccccc1 (stereo not drawn) | inactive: 97%
Cc1ccccc1NP(C)(=O)Nc1ccccc1C | inactive: 99%
O=[N+]([O-])c1cc([N+](=O)[O-])c(C(F)(F)F)c([N+](=O)[O-])c1O | inactive: 96%
CP(=O)(Nc1ccc(SC(F)(F)F)cc1)Oc1ccc(F)cc1 (stereo not drawn) | inactive: 100%
CCOP(C)(=S)SCC(=O)NC(C)(CC)C(=O)O (stereo not drawn) | inactive: 97%
O=C(OC1CN2CCC1CC2)c1ccc([N+](=O)[O-])cc1 (stereo not drawn) | inactive: 101%
O=C(OCCN1CCN(CCOCc2ccccc2)CC1)C(O)(c1ccccc1)c1ccccc1 | inactive: 94%
COc1ccc2c(c1O)-c1c(O)c(OC)cc3c1[C@H](C2)[N+](C)(C)CC3.O=[N+]([O-])c1cc([N+](=O)[O-])c([O-])c([N+](=O)[O-])c1[O-] | inactive: 97%
O=[N+]([O-])c1cc([N+](=O)[O-])c(Nc2ccc(Cl)cc2)c([N+](=O)[O-])c1 | inactive: 97%
CP(=O)(Nc1ccccc1F)Oc1ccccc1 (stereo not drawn) | inactive: 104%
CC(C)c1ccc(OP(C)(=O)Nc2ccc(SC(F)(F)F)cc2)cc1 (stereo not drawn) | inactive: 92%
Cc1c([N+](=O)[O-])cc([N+](=O)[O-])c(Br)c1[N+](=O)[O-] | inactive: 100%
CCN(CC)CCCOC(=O)C(O)(c1ccccc1)C1CCCCC1 (stereo not drawn) | inactive: 100%
CP(=O)(Nc1ccccc1)Oc1ccc(F)cc1 (stereo not drawn) | inactive: 106%
CCCCCOc1ccc(NP(C)(=O)Oc2ccc(Cl)cc2Cl)cc1 (stereo not drawn) | inactive: 99%
O=[N+]([O-])c1cc([N+](=O)[O-])c(OC2CCCCC2O)c([N+](=O)[O-])c1 (stereo not drawn) | inactive: 99%
CCN(CC)CCCNc1ccccc1[N+](=O)[O-].O=[N+]([O-])c1cc([N+](=O)[O-])c(O)c([N+](=O)[O-])c1 | inactive: 98%
CCOC(=O)c1ccc(NP(C)(=O)Oc2ccc(F)cc2)cc1 (stereo not drawn) | inactive: 97%
COc1ccc(OP(C)(=O)Nc2ccc(SC(F)(F)F)cc2)cc1 (stereo not drawn) | inactive: 97%
CCCCCCCCCCCCCCCC1C[N+](C)(C)CCOP(C)(=O)O1 (stereo not drawn) | inactive: 116%
CP(=O)(Nc1ccc(Cl)cc1Cl)Oc1ccccc1 (stereo not drawn) | inactive: 95%
CP(=O)(OCCOc1ccccc1)OCCOc1ccccc1 | inactive: 97%

SMILES | fluorescence ratio to DMSO
O=C1C(O)=C([N+](=O)[O-])C(=O)C(O)=C1[N+](=O)[O-] | inactive: 100%
Cc1cc(C)cc(OP(C)(=O)Nc2cccc(C(F)(F)F)c2)c1 (stereo not drawn) | inactive: 99%
COc1ccccc1OP(C)(=O)Nc1ccc(C)c(C)c1 (stereo not drawn) | inactive: 101%
COc1ccc(OP(C)(=O)Nc2ccccc2Br)cc1 (stereo not drawn) | inactive: 96%
Cc1c(NP(C)(=O)Oc2ccc(C(C)C)cc2)c(=O)n(-c2ccccc2)n1C (stereo not drawn) | inactive: 87%
CP(=O)(Nc1ccccn1)Oc1ccccc1 (stereo not drawn) | inactive: 91%
COc1ccccc1OP(C)(=O)Nc1ccc(C)cc1C (stereo not drawn) | inactive: 87%
CCc1ccc(OP(C)(=O)O)cc1 | inactive: 148%
COc1ccccc1OP(C)(=O)Nc1ccc(Br)cc1 (stereo not drawn) | inactive: 94%
COc1ccc(OP(C)(=O)Nc2ccccn2)cc1 (stereo not drawn) | inactive: 98%
CN(C)CCOC(=O)C(O)(c1ccccc1)C1CCCC1 (stereo not drawn) | inactive: 92%
COc1ccccc1OP(C)(=O)Nc1ccccc1Br (stereo not drawn) | inactive: 96%
CC(C)(C)c1ccc(OP(C)(=O)O)cc1 | inactive: 94%
CP(=O)(Nc1ccc(Cl)cc1)Oc1ccc(F)cc1 (stereo not drawn) | inactive: 98%
CN(C)C(=O)c1c([N+](=O)[O-])cc([N+](=O)[O-])cc1[N+](=O)[O-] | inactive: 113%
CCN(CC)CC(O)COC(=O)C(O)(c1ccccc1)C1CCCCC1 (stereo not drawn) | inactive: 105%
COc1ccc(OP(C)(=O)Nc2ccc(Br)cc2)cc1 (stereo not drawn) | inactive: 102%
COc1ccccc1OP(C)(=O)Nc1c(C)n(C)n(-c2ccccc2)c1=O (stereo not drawn) | inactive: 97%
O=C(OCCCN1CCCC1)C(O)(c1ccccc1)C1CCCCC1 (stereo not drawn) | inactive: 99%
CP(=O)(Oc1ccccc1)N1CCOC1=O (stereo not drawn) | inactive: 100%
CCc1ccc(OP(C)(=O)Nc2cccnc2)cc1 (stereo not drawn) | inactive: 99%
CCOC(=O)c1ccc(NP(C)(=O)Oc2ccc(Cl)cc2)cc1 (stereo not drawn) | inactive: 95%
CP(=O)(OC12CC3CC(CC(C3)C1)C2)OC12CC3CC(CC(C3)C1)C2 | inactive: 94%
